According to PMC11024197 (2024):

Tests used:
Assay in all cases: ITC
PEX5_W7 = target: T1, PEX5_W7 (Homo sapiens (Human), UniProt P50542)
T1 chain: AEAHPWLSDYDDLTS

PEX5_W0 = PEX5_W0 (Homo sapiens (Human), UniProt P50542)
PEX5_W6 = target: T2, PEX5_W6 (Homo sapiens (Human), UniProt P50542)
T2 chain: GTSDAWVDQFTRPVN

PEX5_W5 = target: T3, PEX5_W5 (Homo sapiens (Human), UniProt P50542)
T3 chain: AQAEQWAAEFIQQQG

PEX5_W1 = target: T4, PEX5_W1 (Homo sapiens (Human), UniProt P50542)
T4 chain: ALSENWAQEFLAAGD

Measured: Kd

B1: PEX13 (protein)
chain: VTDSINWASGEDDHVVARAEYDFAAVSEEEISFRAGDMLNLALKEQQPKVRGWLLASLDGQTTGLIPANYVKILGKRKGRKTVESS
> 110 µM: PEX5_W7 | PEX5_W0 | PEX5_W6 | PEX5_W5 | PEX5_W1
